The values that follow are results of earlier work, collected in US20170333404A1, “IMPROVED FORMULATIONS OF VEMURAFENIB AND METHODS OF MAKING THE SAME” (DISPERSOL TECHNOLOGIES, LLC, priority 2014, published 2017).

Some results are limits rather than exact numbers.

The test system of this series is BRAFV600E/K mutant advanced or malignant melanoma. To be noted: MEKi class effect.

In the case of `CC(=O)Nc1cccc(-n2c(=O)n(C3CC3)c(=O)c3c(Nc4ccc(I)cc4F)n(C)c(=O)c(C)c32)c1` [Trametinib], the chorioretinopathy is on record as < 1% and the decreased ejection fraction was 7%.
